Measured affinities in a library of Ab-14 light chain variants

Target: peptide PDVDLGDISGINAS, taken from heptad repeat 2 (HR2) of SARS-CoV-2 spike.

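The starting antibody came from a phage panning campaign against this peptide. AAYL50 was designed without a model: most single CDR substitutions and a random sample of double and triple ones. The scFvs were displayed on barcoded MATa yeast, the peptide on MATalpha yeast. The frequency of each diploid, read from paired DNA barcodes, reflects how well the two displayed proteins bind. A regression on co-assayed BCL2-family reference pairs converts the normalised counts of each replicate to an apparent Kd. There are three technical replicates.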

The variants keep the heavy chain, the linker and the frameworks of Ab-14 (scFv order VH, three GGGGS repeats, VL).
VH: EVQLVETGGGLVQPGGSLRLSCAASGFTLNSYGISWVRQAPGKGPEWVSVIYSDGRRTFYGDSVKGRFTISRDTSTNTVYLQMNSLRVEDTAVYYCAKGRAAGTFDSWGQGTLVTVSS
VL: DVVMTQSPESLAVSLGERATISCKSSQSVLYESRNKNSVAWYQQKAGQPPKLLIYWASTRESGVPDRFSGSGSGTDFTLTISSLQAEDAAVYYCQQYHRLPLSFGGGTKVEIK

Each variant's VL is given in full. Every variant below is changed at S103 of the VL (sequential numbering). Kd is apparent (estimated from mating counts) and averaged on the log scale over replicates with a signal. Smaller is tighter. An entry "no signal" has no value in the source: the pair was not observed among the diploids in any replicate. This suggests poor binding but is not conclusive. Background: pairings of library AAYL50 with three empty control strains gave a value in 18% of cases (median 15 µM, 5th percentile 970 nM). Values in that range, when seen in few replicates, are hard to tell from nonspecific mating. For each scFv, signals with the empty controls are counted beside the result.

With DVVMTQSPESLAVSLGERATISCKSSQMVLYESRNKNSVAWYQQKAGQPPKLLIYWASTRERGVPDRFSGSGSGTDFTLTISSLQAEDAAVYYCQQYHRLPLFFGGGTKVEIK the result was 47 nM (3 of 3 replicates; controls 3 of 9). Variant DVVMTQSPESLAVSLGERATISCKSSQSVLYESRNKNSKAWYQQKAGQPPKLLIYWASGRESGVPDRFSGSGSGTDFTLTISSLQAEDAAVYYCQQYHRLPLQFGGGTKVEIK gave no signal (0 of 3 replicates; controls 0 of 9). For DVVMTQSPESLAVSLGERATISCKSYQMVLYESRNKNSVAWYQQKAGQPPKLLIYWASTRESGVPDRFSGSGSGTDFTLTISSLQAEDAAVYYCQQYHRLPLGFGGGTKVEIK, the assay gave 2.0 µM (3 of 3 replicates; controls 2 of 9). Variant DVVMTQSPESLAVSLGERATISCKSSQSVLVESRNKNSVAWYQQKAGQPPKLLIYWASTRESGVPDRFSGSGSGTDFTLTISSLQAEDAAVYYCQQYHRLPHPFGGGTKVEIK showed no signal (0 of 3 replicates; controls 3 of 9). For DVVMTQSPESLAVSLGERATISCKSSQSVLRESRNKNSVAWYQQKAGQPPKLLIYWASTRESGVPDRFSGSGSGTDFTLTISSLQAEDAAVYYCKQYHRLPLRFGGGTKVEIK, the assay gave 130 nM (3 of 3 replicates; controls 2 of 9). With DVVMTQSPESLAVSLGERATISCKSSQSVLYESRNKNSVSWYQQKAGQPPKLLIYWASTRESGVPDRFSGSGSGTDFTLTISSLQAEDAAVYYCQGYHRLPLVFGGGTKVEIK the result was 3.5 µM (1 of 3 replicates; controls 1 of 9). Variant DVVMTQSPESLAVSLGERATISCKSRQSVLYESRNKNSVAWYQQKAGQPPKLLIYWASTRESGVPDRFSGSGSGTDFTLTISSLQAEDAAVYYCQQSHRLPLIFGGGTKVEIK gave 270 nM (3 of 3 replicates; controls 2 of 9).

With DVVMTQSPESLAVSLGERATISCKSSQSVLYASRNKNSVAWYQQKAGQPPKLLIYWASTRESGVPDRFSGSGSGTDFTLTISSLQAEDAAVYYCQQYFRLPLHFGGGTKVEIK the result was 28 nM (3 of 3 replicates; controls 2 of 9). For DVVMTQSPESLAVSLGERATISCKSSQSFLMESRNKNSVAWYQQKAGQPPKLLIYWASTRESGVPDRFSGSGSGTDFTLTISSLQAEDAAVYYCQQYHRLPLFFGGGTKVEIK, the assay gave 64 nM (3 of 3 replicates; controls 9 of 9). With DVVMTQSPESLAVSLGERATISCKSSGSVLKESRNKNSVAWYQQKAGQPPKLLIYWASTRESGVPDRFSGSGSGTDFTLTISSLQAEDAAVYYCQQYHRLPLAFGGGTKVEIK the result was 200 nM (3 of 3 replicates; controls 0 of 9). With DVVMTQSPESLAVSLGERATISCKSSQSVLYESHNKNSVAWYQQKAGQPPKLLIYWASTRESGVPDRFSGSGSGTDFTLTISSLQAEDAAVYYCQQYHRLPLEFGGGTKVEIK the result was 15 nM (3 of 3 replicates; controls 3 of 9). With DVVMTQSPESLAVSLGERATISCMSSQSVLYESRNKNSVAWYQQKAGQPPKLLIYWASTRESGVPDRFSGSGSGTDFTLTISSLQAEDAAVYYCQAYHRLPLPFGGGTKVEIK the result was no signal (0 of 3 replicates; controls 0 of 9). Variant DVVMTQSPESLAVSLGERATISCKSSQSVLWESRNKNSVAWYQQKAGQPPKLLIYWASTRESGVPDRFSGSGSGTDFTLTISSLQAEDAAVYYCQQAHRLPLMFGGGTKVEIK showed 440 nM (3 of 3 replicates; controls 4 of 9). With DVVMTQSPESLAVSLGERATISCKSSYPVLYESRNKNSVAWYQQKAGQPPKLLIYWASTRESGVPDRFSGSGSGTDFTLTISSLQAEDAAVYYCQQYHRLPLMFGGGTKVEIK the result was 180 nM (2 of 3 replicates; controls 0 of 9).

For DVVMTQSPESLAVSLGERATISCKSLQSVLYESINKNSVAWYQQKAGQPPKLLIYWASTRESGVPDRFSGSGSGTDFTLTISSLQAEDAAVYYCQQYHRLPLWFGGGTKVEIK, the assay gave 2.1 µM (3 of 3 replicates; controls 4 of 9).

Extract of 2 entries:

With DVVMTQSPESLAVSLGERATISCKSSQSVLWESRNKNSVAWYQQKAGQPPKLLIYWASTRESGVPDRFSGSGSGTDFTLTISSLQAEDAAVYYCQQAHRLPLMFGGGTKVEIK the result was 440 nM (3 of 3 replicates; controls 4 of 9).
With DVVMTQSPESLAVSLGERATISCKSSQSVLVESRNKNSVAWYQQKAGQPPKLLIYWASTRESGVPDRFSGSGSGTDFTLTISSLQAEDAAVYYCQQYHRLPHPFGGGTKVEIK the result was no signal (0 of 3 replicates; controls 3 of 9).

Source: Engelhart et al. 2022 (doi:10.1038/s41597-022-01779-4), MIT Lincoln Laboratory and A-Alpha Bio; data file from the FLAb repository.